# Yeast mating assay B: variants of the scFv Ab-14

Target: peptide PDVDLGDISGINAS, taken from heptad repeat 2 (HR2) of SARS-CoV-2 spike.

The variants keep the heavy chain, the linker and the frameworks of Ab-14 (scFv order VH, a (GGGGS)3 linker, VL).
VH: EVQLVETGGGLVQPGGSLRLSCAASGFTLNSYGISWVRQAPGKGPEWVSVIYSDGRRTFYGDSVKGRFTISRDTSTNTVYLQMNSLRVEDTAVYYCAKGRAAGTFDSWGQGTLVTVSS
VL: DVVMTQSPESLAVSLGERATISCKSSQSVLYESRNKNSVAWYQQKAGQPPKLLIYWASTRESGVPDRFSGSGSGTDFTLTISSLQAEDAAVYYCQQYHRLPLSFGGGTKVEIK

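The starting antibody came from a phage panning campaign against this peptide. Designed CDR sequences, proposed from the first random library and measured here. Group labels follow the data file (Ctrl: baseline library sampled from a position-specific scoring matrix, with some repeated check sequences; GP: Gaussian process model; GPLM: also part of the Gaussian process libraries; HC: hill climbing; Gen: genetic algorithm; Gibbs: Gibbs sampling; a sequence that several methods proposed may carry one label only). In AlphaSeq, yeast of one mating type display the scFv and yeast of the other type display the target. The frequency of each diploid, read from paired DNA barcodes, reflects how well the two displayed proteins bind. Scores were corrected for input abundance and mapped to Kd with protein pairs of known affinity run in the same pool. There are six technical replicates.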

Substitutions are numbered in sequence along the VL above, starting at 1 (not Kabat). Variants here have at most six changes. Affinities are written as log10 Kd with Kd in nM; a lower number is a better binder. A mean of the replicates is given; it leaves out those without a signal. "nd" marks a missing value. The strain was present, yet no cells mated with the target were sequenced in any replicate, which points to weak or no binding. The parent sequence was in this pool as ten entries: three were never detected, three once, and four in most replicates, with averages from 0.34 to 2.37.

The variant S25W L30D W56N A57G S58Q S62A [GP_Gibbs] showed -0.31 (6 of 6 replicates). The variant Y31D E32N S33A W56S S103A [Ctrl] gave 0.53 (6 of 6 replicates). The variant N35E [Ctrl] showed 4.18 (1 of 6 replicates). With S25L V29F W56D T59Q [GP_Gen] the result was -0.37 (6 of 6 replicates). With S25L L30P S38Q W56G E61M [GP_Gibbs] the result was 0.10 (6 of 6 replicates).

With S25V V29G S33Q W56E [GP_Gen] the result was -0.31 (6 of 6 replicates). With S25D R34E [Ctrl] the result was 2.00 (3 of 6 replicates). The variant S25L E32G S33Q W56E E61M S103Y [GP_Gibbs] gave -0.09 (6 of 6 replicates). For E32S Y97C [Ctrl], the assay gave 1.77 (3 of 6 replicates). With V29K E61C [Ctrl] the result was 2.19 (3 of 6 replicates).

With V29A R34T W56G R99Y [Ctrl] the result was 0.82 (6 of 6 replicates). For S25L Q27M V29T W56N [GP_HC], the assay gave -0.21 (6 of 6 replicates). The variant W56S R60P S62F [Ctrl] showed 1.94 (4 of 6 replicates). The variant S25L K36A S38N W56E [GP_Gen] showed -0.48 (6 of 6 replicates). With V29W W56G T59Q S62V [GP_HC] the result was -0.26 (6 of 6 replicates).

For S25V W56E T59Q [GP_Gen], the assay gave 0.02 (6 of 6 replicates). The variant S25L S26P V29E W56H T59Q [GP_Gen] showed -0.16 (6 of 6 replicates). For S25L S26R V29M W56N T59Q [GP_Gen], the assay gave -0.26 (6 of 6 replicates). With S25V Q27G V29E W56E [GP_Gen] the result was -0.19 (6 of 6 replicates). For S25F Q27N L30Y Y31M [Ctrl], the assay gave 0.39 (6 of 6 replicates).

With S25L S26L V29E W56H S62D R99Q [GP_HC] the result was -0.14 (6 of 6 replicates). The variant K24H Q27P L30A W56Q [GP_HC] gave 0.15 (6 of 6 replicates). With S25Q V29A Y31C W56D [GP_HC] the result was 0.50 (6 of 6 replicates). The variant S25L V29E W56H [GP_Gen] showed -0.21 (6 of 6 replicates). With S25Q S28A V29F W56D S58N [GP_HC] the result was 0.02 (6 of 6 replicates).

For V29K N35S [Ctrl], the assay gave nd (0 of 6 replicates). With S25F Q27G Y31L N35T W56N [GP_HC] the result was -0.16 (6 of 6 replicates). For S25L V29Q N35Q W56N T59Q [GP_Gen], the assay gave 0.13 (6 of 6 replicates). The variant R34D W56N S103P [Ctrl] showed 2.43 (2 of 6 replicates). With N37Q R99K [Ctrl] the result was 1.96 (2 of 6 replicates).

The variant S25L S38A W56D R99W [GP_HC] gave -0.19 (6 of 6 replicates). For R34N T59I R60H [Ctrl], the assay gave 1.27 (1 of 6 replicates). The variant S25L Q27E V29F W56D E61L S62E [GP_Gibbs] gave -0.32 (6 of 6 replicates). The variant Q27I V29Y Y31P K36E W56E S62Q [GP_HC] gave 0.66 (6 of 6 replicates). The variant S25V K36S W56K [Ctrl] gave 0.26 (6 of 6 replicates).

The variant Q27T Y31Q N35I K36V A57E [Ctrl] showed nd (0 of 6 replicates). For S25V L30M S33A R34T [Ctrl], the assay gave 1.06 (6 of 6 replicates). The variant Y31F S33E [Ctrl] showed nd (0 of 6 replicates). The variant S25L V29E S38N W56D [GP_Gen] gave -0.34 (6 of 6 replicates). The variant R34V W56D [GPLM_HC] showed 0.09 (6 of 6 replicates).

In the paper, a design with two or fewer of six values counts as a poor binder. Values of this round are not directly comparable with the first-round values of the same sequences. Three control strains display no target. For all light chain designs, 4% of the pairings with them gave a signal, with a median of 2.64 and one signal in twenty below 1.59, so weak values seen in few replicates may be background.

Source: Li et al. 2023 (doi:10.1038/s41467-023-39022-2), MIT Lincoln Laboratory and A-Alpha Bio; data file from the FLAb repository.